Assay results reported in patent US20220387414A1, “TREATING LIVER DISORDERS” (Terns Pharmaceuticals Inc., priority 2019, published 2022).

Key:
[1] = Tissue distribution of radiolabeled (14C) Compound I after oral dose; assay type: in vivo, Long-Evans rats; settings: as summarised in the description from the examples
Procedure: Radiolabeled (^14C) Compound I was also administered to Long-Evans rats at an oral dose of 5 mg/kg (100 μCi/kg). Plasma, liver, small intestine, cecum, kidney, lung, heart and skin tissue samples were collected up to 168 hours, and the amount of radioactive material at various time points was measured.

[2] = test system: FXR-regulated, inflammatory and fibrosis gene expression in the liver; assay: Liver gene expression in NASH mouse model (RT-qPCR, RNA-seq); assay type: in vivo, C57/BL6J mice; settings: NASH mice liver, 30 mg/kg

Cn1cc(C(=O)O)c2ccc(N3CCC(OCc4c(-c5c(Cl)cccc5Cl)noc4C4CC4)CC3)cc21 [Compound I, 6-{4-[5-cyclopropyl-3-(2,6-dichloro-phenyl)-isoxazol-4-ylmethoxy]-piperidin-1-yl}-1-methyl-1H-indole-3-carboxylic acid]
concentration in the liver relative to plasma, kidney, lungs, heart, and skin [1]: approximately 20 fold
BSEP expression (CPM) Relative to Vehicle [2]: 5.1
OST-B expression (CPM) Relative to Vehicle [2]: 135.7
SHP expression (CPM) Relative to Vehicle [2]: 4.6
